The values that follow come from patent publication US20230115907A1, “HETEROCYCLIC COMPOUND AND PHARMACEUTICAL COMPOSITION, PREPARATION METHOD, INTERMEDIATE AND USE THEREOF” (EVOPOINT BIOSCIENCES CO., LTD., priority 2019, published 2023).

The chains behind the UniProt entries cited, without tags or fusion partners.
UniProt P50613, whole entry: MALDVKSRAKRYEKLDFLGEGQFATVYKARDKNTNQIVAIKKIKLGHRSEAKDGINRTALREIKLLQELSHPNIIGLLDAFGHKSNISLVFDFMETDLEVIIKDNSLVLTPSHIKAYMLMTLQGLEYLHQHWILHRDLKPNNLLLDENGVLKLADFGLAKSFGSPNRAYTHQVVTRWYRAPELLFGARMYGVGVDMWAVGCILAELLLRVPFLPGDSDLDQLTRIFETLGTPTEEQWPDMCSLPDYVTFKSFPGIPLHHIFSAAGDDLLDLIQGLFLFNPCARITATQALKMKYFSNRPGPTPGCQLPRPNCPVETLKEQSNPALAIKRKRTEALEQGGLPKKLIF
UniProt P51946, whole entry partner: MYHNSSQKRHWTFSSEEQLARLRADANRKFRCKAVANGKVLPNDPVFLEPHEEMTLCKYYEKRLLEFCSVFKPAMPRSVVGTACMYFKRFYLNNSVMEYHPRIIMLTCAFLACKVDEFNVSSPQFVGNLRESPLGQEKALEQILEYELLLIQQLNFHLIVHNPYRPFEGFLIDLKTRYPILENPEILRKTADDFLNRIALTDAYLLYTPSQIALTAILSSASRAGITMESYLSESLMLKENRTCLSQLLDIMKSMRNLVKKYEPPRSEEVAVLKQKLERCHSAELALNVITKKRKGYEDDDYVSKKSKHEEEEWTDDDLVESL
UniProt P51948, whole entry partner: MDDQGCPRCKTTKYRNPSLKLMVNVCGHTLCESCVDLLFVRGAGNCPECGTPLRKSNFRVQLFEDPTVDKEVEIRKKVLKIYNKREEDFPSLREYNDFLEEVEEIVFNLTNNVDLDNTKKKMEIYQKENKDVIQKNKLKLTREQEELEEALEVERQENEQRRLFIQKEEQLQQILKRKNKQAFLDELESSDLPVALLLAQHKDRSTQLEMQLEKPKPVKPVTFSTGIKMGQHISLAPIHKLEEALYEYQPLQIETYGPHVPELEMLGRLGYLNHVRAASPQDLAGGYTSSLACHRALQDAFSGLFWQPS

Like-named read-outs stand apart in the source and are kept apart here.

In one data set the test system is HCC70 cells. Nature of the data set: Inhibition of cell proliferation, CellTiter-Glo, HCC70. As to conditions: read-out: HCC70 IC50. (In general: In ATP-based viability assays light output follows the ATP content of the culture.)
Another data set concerns OVCAR3 cells. Nature of the data set: Inhibition of cell proliferation, CellTiter-Glo, OVCAR3. As to conditions: read-out: OVCAR-3 IC50.
In another data set the test system is HCT116 cells. Put plainly: Inhibition of cell proliferation, CellTiter-Glo, HCT116. As to conditions: read-out: HCT116 IC50; Efficacy Example 3 (Table 3), incubation for 3 days.
In a further data set the test system is HCC1806 cells. Put plainly: Inhibition of cell proliferation, CellTiter-Glo, HCC1806. As to conditions: read-out: HCC1806 IC50; Efficacy Example 3 (Table 3), incubation for 3 days.
Data set [1] can be described thus: In vivo pharmacokinetics after intragastric administration in mice. As to conditions: single intragastric administration, 20 mg/kg, plasma.
Data set [2] is described as follows: In vivo pharmacokinetics after intragastric administration in rats. As to conditions: single intragastric administration, 40 mg/kg, plasma.
Data set [3] deals with human colon cancer cells HCT116 xenograft tumor. Nature of the data set: In vivo efficacy in subcutaneous xenograft tumor model of human colon cancer cells HCT116. (In xenograft studies the graft and the host belong to different species.)
The target of the next data set is CDK7/Cyclin H/MAT1 (Homo sapiens, UniProt P50613). Nature of the data set: CDK7 inhibition, mobility shift assay. As to conditions: CDK7 3 nM, pre-incubation 60 min, ATP 2 mM, peptide substrate 2 μM.
Setting [4] is: Efficacy Example 2 (Table 2), 72 h incubation.
Setting [5] is: Efficacy Example 3 (Table 3), incubation for 3 days.
Setting [6] is: 25 mg/kg p.o. QD × 21 days, mean value ± standard error.

As usually defined, the IC50 is the concentration that inhibits the measured activity by half. By AUC(0-t) is commonly meant the area under the concentration-time curve up to a stated or last time point. Read a high AUC(0-t) as high exposure. For orientation: Cmax means the highest concentration seen after dosing. As a reminder, the Tmax is the time from dosing to the highest level. On to `Cc1cc(NC2CCN(C(=O)OC3CCN(C(=O)C=CCN(C)C)C3)CC2)n2ncc(C(C)C)c2n1` (single isomer, unassigned) [SZ-015200], for which the IC50 stood at 34.1 nM in the data set with HCC70 cells (setting [4]); 68.6 nM in the data set with HCC70 cells (setting [5]); 32 nM in the data set on OVCAR3 cells (setting [4]); 102 nM with OVCAR3 cells (setting [5]); 24.1 nM in the data set with HCT116 cells; 65.4 nM in the data set on HCC1806 cells. At CDK7/Cyclin H/MAT1, the IC50 came to 54.1 nM. In addition, the “AUC(0-t)” value in data set [1] amounted to 2926.85 ng·h/mL; in data set [2] it was 1988.83 ng·h/mL. Besides, the “AUC(0-∞)” value worked out at 3121.49 ng·h/mL in data set [1] and 2554.45 ng·h/mL in data set [2]. In addition, the Cmax in data set [1] turned out to be 1209.14 ng/mL; in data set [2], 322.98 ng/mL. For the same compound, the T1/2 amounted to 1.97 h in data set [1] and 4.11 h in data set [2]. For the same compound, the time to peak (Tmax) worked out at 0.67 h in data set [1] and 3.33 h in data set [2]. The “Tumor inhibition rate (TGI)” value in data set [3] (25 mg/kg p.o. QD × 21 days, day 21) amounted to 27.9%. Besides, in data set [3] (setting [6]), the “% proliferation percentage of tumor volume (Day 21 after grouping)” value is reported as 764 ± 58%. In addition, the “Tumor volume (day 21 after grouping)” value in data set [3] (setting [6]) is 766 ± 71 mm^3. Moreover, the “Anti-tumor effect (in words)” value in data set [3] (SZ-015256: 25 mg/kg and 15 mg/kg treatment groups, SZ-015268 and SZ-015200: 25 mg/kg treatment group) is recorded as “slight anti-tumor tendency”.
Regarding `Cc1cc(NC2CCN(C(=O)OC3CCN(C(=O)C=CCN(C)C)C3)CC2)n2ncc(C(C)C)c2n1` (single isomer, unassigned) [SZ-015201], the IC50 in the data set on HCC70 cells (setting [4]) is 25.5 nM; in the data set with OVCAR3 cells (setting [4]) it was 22.6 nM; at CDK7/Cyclin H/MAT1 it was 134 nM.
